Experiments:
[1] = target: Tyk2 kinase domain (JH1) (Homo sapiens (Human), UniProt P29597); assay: Tyk2 Radioactive Kinase Assay; format: biochemical; conditions: ATP 10 μM
[2] = target: JAK2 kinase domain (JH1) (Homo sapiens (Human), UniProt O60674); assay: JAK2 Radioactive Kinase Assay; format: biochemical; conditions: ATP 10 μM

Chains of the proteins cited; added tags and fusions are not shown. Residues count along the entry.
UniProt P29597, 897-1176 limits assumed: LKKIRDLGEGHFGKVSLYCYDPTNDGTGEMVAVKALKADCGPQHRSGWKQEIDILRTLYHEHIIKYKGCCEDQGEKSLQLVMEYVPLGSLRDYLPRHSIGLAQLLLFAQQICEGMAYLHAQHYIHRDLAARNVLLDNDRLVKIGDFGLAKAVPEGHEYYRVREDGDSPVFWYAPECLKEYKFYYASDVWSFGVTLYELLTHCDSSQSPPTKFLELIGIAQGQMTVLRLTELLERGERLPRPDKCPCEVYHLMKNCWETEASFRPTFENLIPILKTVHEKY
UniProt O60674, 849-1124 limits assumed: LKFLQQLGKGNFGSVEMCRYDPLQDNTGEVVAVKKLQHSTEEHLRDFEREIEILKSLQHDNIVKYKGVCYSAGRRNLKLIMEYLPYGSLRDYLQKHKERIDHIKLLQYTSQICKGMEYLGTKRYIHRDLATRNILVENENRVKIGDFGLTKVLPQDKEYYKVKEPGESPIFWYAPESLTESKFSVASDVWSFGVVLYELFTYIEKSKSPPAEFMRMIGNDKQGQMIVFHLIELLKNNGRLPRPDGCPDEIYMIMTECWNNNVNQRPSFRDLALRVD

| SMILES | Tyk2 JH1% Inhibition @ 10 μM ([1]; 10 μM compound) | JAK2 JH1% Inhibition @ 10 μM ([2]; 10 μM compound) | Tyk2 JH1% Inhibition @ 10 μM ([1]; compound at 10 μM) | JAK2 JH1% Inhibition @ 10 μM ([2]; compound at 10 μM) |
| --- | --- | --- | --- | --- |
| CNc1cc(Nc2cccn(-c3cncc(C)c3)c2=O)nc2c(C(=O)NC3CC3)cnn12 | A (percent inhibition at 10 μM lower than 50) | A (percent inhibition at 10 μM lower than 50) | – | – |
| CNc1cc(Nc2cccn([C@@H]3CCCOC3)c2=O)nc2c(C(=O)N[C@H]3CCC[C@H](O)C3)cnn12 | – | – | A (percent inhibition at 10 μM lower than 50) | A (percent inhibition at 10 μM lower than 50) |
